# Assays:
# [1] = test system: AKT, p-AKT, EGFR, and p-EGFR in PC-9 cells; test: Western-blots of AKT, p-AKT, EGFR, p-EGFR, PC-9 cells; assay type: cell-based, human; details: PC-9, 48 h
# [2] = test system: PC-9/GR lung cancer xenografts; test: Preliminary pharmacodynamic test in PC-9/GR tumor-bearing nude mice; assay type: in vivo, BABL/C nude mouse; details: compared with the normal control group and the model control group
# PC-9/GR and PC-9 cells = test: Resistance index of GEF-resistant strain PC-9/GR (MTT); assay type: cell-based, human; details: MTT 24 h, PC-9/GR versus PC-9
# Procedure: PC-9/GR^[50] was constructed by an intermittent action method of stepwise increasing GEF concentration as follows: the PC-9 cells in logarithmic growth phase were inoculated into a 1640 medium containing 10% FBS, a GEF solution having a concentration of 10 μM was used to act for 48 h and then the drug-containing medium was discarded, and the culture was continued after a fresh medium was added. After waiting for PC-9 to resume the normal growth rate, the cells were treated with the GEF with a concentration of 10 μM for 48 h after digestion and passage.
# The PC-9/GR and PC-9 cells in logarithmic growth phase were taken, and adjusted to 5×10^4·mL^−1 after trypsinization. 100 μL of cells was added to each well, inoculated in a 96-well culture plate and cultured in a 37° C. 5% CO2 incubator. When the cells were grown to about 80%, GEF was respectively added according to the concentration gradient. 5 replicate wells were arranged in each group, and a normal control group was set at the same time. MTT assay was performed 24 hours after administration. For the specific MTT operation, please refer to “(IV) Research on inhibitory effects of ERG combined with GEF on proliferation of A549 and PC-9 cells (MTT test)” in Part I in details. […] The PC-9/GR cell resistance index was 13.90, which was analyzed by SPSS17.0 software, and the cells were highly resistant to drugs.
# [3] = test system: AKT, p-AKT, EGFR, and p-EGFR in A549 cells; test: Western-blots of AKT, p-AKT, EGFR, p-EGFR, A549 cells; assay type: cell-based, human; details: A549, 48 h, compared with the blank control group and the ERG group
smiles,measurement,setting,value
"COc1cc2ncnc(Nc3ccc(F)c(Cl)c3)c2cc1OCCCN1CCOCC1 [GEF, gefitinib]",p-AKT/AKT level,[1]; compared with the ERG group,significantly decreased
same,p-EGFR/EGFR level,[1]; compared with the ERG group,significantly decreased
same,p-EGFR/EGFR level,[1]; compared with the blank control group,significantly decreased
same,spleen index,[2],decreased
same,PC-9/GR cell resistance index,PC-9/GR and PC-9 cells,13.90
same,p-AKT/AKT level,[3],significantly decreased
same,p-EGFR/EGFR level,[3],significantly decreased

# — US11123353B2, “Uses of ergosterol combined with gefitinib, preparation methods of liposome and freeze-dried powder thereof” (Zhejiang Chinese Medical University, priority 2019, dated 2021)
